From paper PMC3994145

By UniProt entry, the sequences of proteins in these tests, tags left out. Residues count along the entry.
UniProt P12318, 34-317: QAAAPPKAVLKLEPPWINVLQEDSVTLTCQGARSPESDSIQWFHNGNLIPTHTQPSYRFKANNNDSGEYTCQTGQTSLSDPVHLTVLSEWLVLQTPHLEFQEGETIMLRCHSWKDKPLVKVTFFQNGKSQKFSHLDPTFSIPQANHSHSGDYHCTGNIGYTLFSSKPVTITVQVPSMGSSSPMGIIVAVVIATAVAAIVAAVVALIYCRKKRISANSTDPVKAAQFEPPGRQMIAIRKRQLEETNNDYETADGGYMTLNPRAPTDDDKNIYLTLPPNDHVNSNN

Target: human FcγRIIa/131H on Jurkat cells (human) (UniProt P12318)

EC50 of luciferase activity of Jurkat/FcγRIIa/NFAT-Luc cells co-cultured with Daudi cells and serially diluted mAb: 0.094 µg/mL
Substance: rituximab (wild-type, anti-CD20 mAb, IgG1) (antibody)
